# Laboratory results from PubChem BioAssay (NCI).
# The list shows a part of the results, in another mix than the full data.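 Values shown are percent growth following 48 h exposure of cells in 96-well plates to a single concentration of compound; below 10 was considered active.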 Calls of active or inactive are those of the source.
# Tested on: MOLT-4 leukemia
# Test: NCI-60 one-dose screen, 48 h (100 = growth as untreated, 0 = no growth, -100 = all killed)
# Conditions: 10 µM unless noted
row,SMILES,growth
1,COc1cc([N+](=O)[O-])c([N+](=O)[O-])cc1N,inactive: 87.8%
2,Cc1ccc(Sc2ccc([N+](=O)[O-])cc2[N+](=O)[O-])c([N+](=O)[O-])c1,inactive: 11.4%
3,CC(=O)Nc1ccc([As](=O)(O)O)cc1,inactive: 116%
4,ClCCN1CCc2ccccc2C1,inactive: 86%
5,CCOC(=O)NC(C)(CCC(C)(NC(=O)OCC)P(=O)(O)Nc1ncccn1)P(=O)(O)Nc1ncccn1 (stereo not given),inactive: 108% [100 µM]
6,CCSC(O)C(Cl)(Cl)Cl (stereo not given),inactive: 105%
7,COP(=O)(OC)N1CC1c1ccccc1 (stereo not given),inactive: 104%
8,O=P1(N(CCCl)CCCl)OCCCS1 (stereo not given),inactive: 94.8%
9,CC[C@H](C)[C@@H]1NC(=O)/C(=C(\C)O)C1=O,inactive: 114%
10,CCN(CCCl)C(Cc1ccccc1)c1ccccc1 (stereo not given),inactive: 81.6%
11,[N-]=[N+]=NS(=O)(=O)c1ccc([N+](=O)[O-])cc1,inactive: 106%
12,O=P1(N(CCCl)CCCl)OCCCN1CCCl (stereo not given),inactive: 115%
13,O=C1CSC(C(Cl)(Cl)Cl)N1c1ccc(Cl)cc1 (stereo not given),inactive: 101%
14,ClC1(Cl)SC(Cl)(Cl)C(Cl)(Cl)C1(Cl)Cl,inactive: 90.5%
15,Nc1ccc(CCCCOc2ccccc2)cc1,inactive: 38.3%
16,CCN(CCCl)c1ccc(CCC(=O)O)cc1,inactive: 85.4%
17,O=C(OC1CN2CCC1CC2)c1ccccc1 (stereo not given),inactive: 103%
18,Nc1nnc(N)nn1,inactive: 107%
19,COP(OC)c1ccc(C)cc1,inactive: 73.9%
20,CCOP(=O)(NC1CCCCC1)OCC,inactive: 96%
